Assay results taken from patent US8026222B2, “Methods of use of glycomimetics with replacements for hexoses and n-acetyl hexosamines” (GlycoMimetics, Inc., priority 2007, dated 2011).

Test system: human umbilical vein endothelial cells (HUVECS)
Experiment: neutrophil rolling on endothelial cell monolayers under flow conditions (rolling index)
Assay type: cell-based
Details: HUVEC monolayers incubated in glycated serum protein for 4 hours, perfused with human neutrophils (FIG. 18, FIG. 19)
Protocol: Glycated serum proteins induce neutrophil rolling on endothelial cells in an in vitro assay of cell adhesion under flow conditions. Monolayers of human umbilical vein endothelial cells (HUVECS) were incubated in glycated serum proteins (FIG. 18, glycated albumin, Gly-HSA or FIG. 19, glycated hemoglobin, Gly-Hb) for 4 hours. Monolayers were then inserted into a flow chamber and the chamber was perfused with human neutrophils (10^6 cell/ml) at a flow rate corresponding to a wall shear stress of 0.9 dynes/cm^2. Digital images were acquired and analyzed to determine the rolling index (RI) which is a measure of the degree of neutrophil rolling on the endothelial cell monolayer. Glycated HSA yielded about a 6-fold increase in rolling while glycated hemoglobin yielded approximately a 2.8-fold increase. At 50 μM, about 90% of the cell rolling is inhibited by the test compound.

Glycated HSA: glycated human serum albumin used to stimulate endothelial cells
increase in neutrophil rolling (rolling index): ~6 fold
